1 molecule from US20220153864A1 can be followed below.

The target in assay [1] is 32 different targets including GPC3, GPC5, and other TNF receptor proteins. Kind of assay: off-target ELISA on 32 coated targets, sum of the ratios at 100 nM and 10 nM. For orientation: ELISA stands for enzyme-linked immunosorbent assay.
Assay [2] shares this target. Kind of assay: off-target ELISA on 32 coated targets, binder at 100 nM, signals normalized to control antibody SEQ ID NOs: 106 and 107 and summed.
Assay [3] shares this target. Kind of assay: off-target ELISA on 32 coated targets, binder at 10 nM, signals normalized to control antibody SEQ ID NOs: 106 and 107 and summed.

B1: fusion protein SEQ ID NOs: 87 and 82 (bispecific antibody, human IgG4 S228P, kappa, F234A L235A)
heavy: QVQLVQSGAEVKKPGASVKVSCKASGYTFTDYEMHWVRQAPGQGLEWMGALDPKTGDTAYSQKFKGRVTLTADKSTSTAYMELSSLTSEDTAVYYCTRFYSYTYWGQGTLVTLVSSASTKGPSVFPLAPCSRSTSESTAALGCLVKDYFPEPVTVSWNSGALTSGVHTFPAVLQSSGLYSLSSVVTVPSSSLGTKTYTCNVDHKPSNTKVDKRVESKYGPPCPPCPAPEAAGGPSVFLFPPKPKDTLMISRTPEVTCVVVDVSQEDPEVQFNWYVDGVEVHNAKTKPREEQFNSTYRVVSVLTVLHQDWLNGKEYKCKVSNKGLPSSIEKTISKAKGQPREPQVYTLPPSQEEMTKNQVSLTCLVKGFYPSDIAVEWESNGQPENNYKTTPPVLDSDGSFFLYSRLTVDKSRWQEGNVFSCSVMHEALHNHYTQKSLSLSLGGGGGSGGGGSGGGGSQDSTSDLIPAPPLSKVPLQQNFQDNQFHGKWYVVGQAGNIRLREDKDPIKMMATIYELKEDKSYDVTMVKFDDKKCMYDIWTFVPGSQPGEFTLGKIKSFPGHTSSLVRVVSTNYNQHAMVFFKFVFQNREEFYITLYGRTKELTSELKENFIRFSKSLGLPENHIVFPVPIDQCIDG
light: DVVMTQSPLSLPVTPGEPASISCRSSQSLVHSNRNTYLHWYLQKPGQSPQLLIYKVSNRFSGVPDRFSGSGSGTDFTLKISRVEAEDVGVYYCSQNTHVPPTFGQGTKLEIKRTVAAPSVFIFPPSDEQLKSGTASVVCLLNNFYPREAKVQWKVDNALQSGNSQESVTEQDSKDSTYSLSSTLTLSKADYEKHKVYACEVTHQGLSSPVTKSFNRGEC
For B1, the sum of cumulative binding ratios in assay [1] stood at 109. Further, the cumulative binding ratio in assay [2] is 64; in assay [3], 45.
